# Literature values as cited in patent publication US20250340667A1, “Cancer Treatment comprising an anti-MSLN/CD137 antibody and a chemotherapeutic” (Merck Patent GmbH, priority 2022, published 2025).
# The chains behind the UniProt entries cited, without tags or fusion partners. Residues count along the entry.
# UniProt Q07011, 24-255: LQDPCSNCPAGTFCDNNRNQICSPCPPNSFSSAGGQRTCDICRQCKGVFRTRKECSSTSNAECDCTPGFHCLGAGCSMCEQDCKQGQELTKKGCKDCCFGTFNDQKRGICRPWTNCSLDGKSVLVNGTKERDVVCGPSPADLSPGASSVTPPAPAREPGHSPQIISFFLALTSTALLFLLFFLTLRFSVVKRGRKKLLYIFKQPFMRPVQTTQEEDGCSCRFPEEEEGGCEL
# Biological target: T1, CD137 (Homo sapiens, UniProt Q07011)
# T1 construct: Clinical studies of both utomilumab and urelumab monotherapy were however suspended; host or cells: patients (endogenous CD137)
# Settings: monotherapy clinical studies, suspended; cited from earlier work
substance,measurement,value
utomilumab: 1st generation CD137 agonist antibody,clinical efficacy,low efficacy
